Target: T1, Cytochrome P450 1B1 (Homo sapiens, UniProt Q16678)
T1 sequence (Q16678 whole entry): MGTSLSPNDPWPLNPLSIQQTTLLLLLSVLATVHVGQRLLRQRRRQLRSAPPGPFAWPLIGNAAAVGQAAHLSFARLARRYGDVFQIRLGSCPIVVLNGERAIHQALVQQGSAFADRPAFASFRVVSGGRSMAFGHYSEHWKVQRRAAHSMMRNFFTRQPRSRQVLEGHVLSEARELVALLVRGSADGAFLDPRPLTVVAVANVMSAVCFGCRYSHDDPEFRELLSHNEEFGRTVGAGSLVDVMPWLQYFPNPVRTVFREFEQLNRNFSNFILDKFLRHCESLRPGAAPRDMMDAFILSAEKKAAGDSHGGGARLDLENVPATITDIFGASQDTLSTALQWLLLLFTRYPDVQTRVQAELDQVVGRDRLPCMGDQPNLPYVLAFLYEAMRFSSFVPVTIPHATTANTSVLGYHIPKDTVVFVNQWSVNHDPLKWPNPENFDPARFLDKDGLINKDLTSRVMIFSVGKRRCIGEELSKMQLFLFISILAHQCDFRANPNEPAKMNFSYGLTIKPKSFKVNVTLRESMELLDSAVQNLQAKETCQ
Experiment: Inhibition of recombinant human CYP1B1 incubated for 45 mins using 7-ethyl-O-resorufin substrate in presence of NADPH regenerating system by fluorescence based ethoxyresorufin-O-deethylase assay

IC50: 240 nM
Structure (SMILES): O=c1cc(-c2ccccc2)oc2c1ccc1ccccc12 [ALPHA-NAPHTHOFLAVONE]
